Values of other authors in patent US6693073B2, “Pulmonary delivery of active agents” (Emisphere Technologies, Inc., priority 1998, dated 2004).

Details: intravenous administration of 0.1 u/kg to rabbits; previously reported; cited from earlier work

bovine insulin
t ½: 30 min
